{
  "source": "patent US20120035184",
  "molecular_target": "recombinant H-Ras-CVLL (UniProt P01112)",
  "data": [
    {"substance": "geranylgeranyltransferase I (GGTase I)", "values": [
      {"measurement": "Km (in vitro GGTase I activity assay, transfer of [3H]geranylgeranyl from [3H]GGPP to H-Ras-CVLL)", "value": "The Km and Vmax values obtained for H-Ras-CVLL were 2.8 µM and 0.07 pmol/min, respectively"}
    ]}
  ]
}
